Legend:
[1] = tested on: normal mouse fibroblast (BALB/3T3) cell line; conditions: cited from earlier work
[2] = tested on: normal mouse fibroblast (BALB/3T3) cell line; experiment: in vitro cytotoxicity, SRB assay, normal BALB/3T3; assay type: cell-based; conditions: compound concentration 10 μg/mL
Protocol: The cytotoxicity of the investigated complexes 1–3 was determined by microculture with sulforhodamine B SRB (all adherent cells) and MTT ([3-(4,5-dimethyl(thiazol-2-yl) -2,5-diphenyltetrazoliumbromide)]) (for cells in suspension (leukemia cells)) assays with the following three tumor cell lines: colorectal adenoma (LoVo), myelomonocytic leukemia (MV-4-11), and breast adenocarcinoma (MCF-7), as well as a healthy mouse fibroblast (BALB/3T3) cell line. The cytotoxicity of the compounds was measured using the methods described previously. The in vitro cytotoxic activity results were presented as the percentage of inhibition of cell proliferation by the tested compounds or DMSO, which was used as a solvent (at a concentration of 10 µg/mL of the tested compound was 0.1% DMSO). The results for cisplatin, used as a test control, were presented in the form of IC50 value (this is the concentration of the compound causing the inhibition of cell proliferation of 50% of the cell population). The results were calculated from 2 to 3 independent experiments.

Row | Substance | cytotoxicity against BALB/3T3, times lower compared with cisplatin [1] [times] | Cell viability [%] BALB/3T3 [2] [%]
1 | [(η^6-p-cymene)RuCl(2,2′-PyBIm)]PF6 | 15 | 
2 | [(η^6-p-cymene)RuCl(py2CO)]PF6 [complex 1] |  | 99

Source: PMC7475896, “Ruthenium(II) and Iridium(III) Complexes as Tested Materials for New Anticancer Agents” (Materials, 2020)
